One assay addresses HuCDCP1-C (human) (UniProt Q9H5V8). Description: ELISA, HuCDCP1-C coated 2 ug/ml. In general terms: In an ELISA, binding on a coated surface is turned into a signal by an enzyme label.
The next assay concerns the target T1, HuCDCP1-B (human) (UniProt Q9H5V8).
T1 sequence (looked up): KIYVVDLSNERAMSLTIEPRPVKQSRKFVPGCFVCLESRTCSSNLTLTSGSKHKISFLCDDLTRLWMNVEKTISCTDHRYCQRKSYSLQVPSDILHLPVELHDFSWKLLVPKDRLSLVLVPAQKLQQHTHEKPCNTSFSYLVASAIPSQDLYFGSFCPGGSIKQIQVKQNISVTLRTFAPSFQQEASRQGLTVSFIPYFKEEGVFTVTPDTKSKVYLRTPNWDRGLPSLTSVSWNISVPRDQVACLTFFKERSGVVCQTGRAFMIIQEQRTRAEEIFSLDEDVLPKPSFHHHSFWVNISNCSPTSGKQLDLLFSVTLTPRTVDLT
The experiment in a line: ELISA, HuCDCP1-B coated 2 ug/ml.

B1: SB13 (antibody, V domains shown)
VH: EVKLVESGGGLVQPGGSLRLSCATSGFTFSDFYMEWVRQPPGKRLEWIAVSRDKTNDYTTEYSASMKGRFIVSRDTSQSILYLQMNALRAEDTAIYYCARDGVYYYGSSYTLDYWGQGTSVTVSS
VL: DIVMTQSHKFMSTSVGDRVSITCKASQDVSSSVAWYQQKPGQSPKLLIYWASTRHTGVPDRFTGSGSGTDYTLTISSVQAEDLALYYCQQHYNTPPTFGGGTKLEIK
Molecule B1 returned an ELISA with HuCDCP1-C (human) of 0.048 nM.

B2: SB17 (antibody, V domains shown)
VH: QVTLKESGPGILQPSQTLSLTCSFSGFSLSTSGMSVGWIRQPSGKGLEWLAHIWWNDDKYYNPALKTRLTISKDSSNNQIFLKIASVVTADSATYYCARIGYYYGTYALDYWGPGTSVTVSS
VL: QIVLTQSPALMTASPGEQVTMTCSASSSVSYIHWYQQKSGTSPKRWIYDASKLASGVPARFSGSGSGTSYSLTISSMEAEDAATYYCQQWSSYPLTFGGGTKLELK
Turning to B2, in the assay with HuCDCP1-C (human), the ELISA was 0.046 nM.

B3: SB18 (antibody, V domains shown)
VH: QVTLKESGPGILQPSQTLSLTCSFSGFSLTTSGMNVGWLRQPSGKGLEWLAHIWWNDDKHSNPVLKSRLTISKDTSNNQAFLKIANVVTADSATYYCARLRDGGFAYWGQGTLVTVSA
VL: DIQMTQTTSSLSASLGDRVTISCSASQAISNYLNWYQQKPDGTVKLLIYYTSHLHSGVPSRFSGSGSGTDYSLTISNLEPEDIATYYCQQYSKIPWTFGGGTKLEII
B3 had an ELISA in the assay with HuCDCP1-C (human) of 0.121 nM.

B4: SB15 (antibody, V domains shown)
VH: EVKLVESGGGLVKPGGSLKLSCAASGFTFSSYGMSWVRQTPEKRLEWVATISGGINYTYYRDSVEGRFTISRDNAKNNLYLQMSRLRSEDTALYYCARHDRYDGYYYVMDYWGQGTSVTVSS
VL: DIQMTQSPSSLSASLGERVSLTCRASQEISGYLTWLQQRPDGTIKRLIYAASTLDSGVPKRFSGSRSGSDYSLTISSLESEDFADYYCLQYASYPYTFGGGTKLEIK
B4 showed an ELISA with HuCDCP1-C (human) of 0.042 nM.

B5: SB14 (antibody, V domains shown)
VH: QVQLQQSGNEVVKPGASVKLSCKTSGYTFTNYWLQWVKQRPGQGLEWIGEIFPGTGTTYYNEKFKDQATVTIDTSSSTAYIHLSSLTSEDSAVYFCARTNWEGYYFDYWGQGTTLTVSS
VL: ENVLTQSPAIMSASSGEKVTMTCRASSSVRSSYLHWYQQKSGASPKVWIYSTSNLASGVPVRFSGSGSGTSYSLTISSVEAEDAATYYCQQYSGSPSWTFGGGTKLEIK
As to B5, the ELISA came out at 0.056 nM with HuCDCP1-B (human) and 0.067 nM with HuCDCP1-C (human).

B6: SB16 (antibody, V domains shown)
VH: QVQLQQSGPELVRPGVSVRISCKGSGYPFTDYAIHWVKQGHGKNLEWIGVIAPYSDNTGYNQRFKGKATMTVDKSSSTAYMELARLTSEDSAIYYCAAYGNYGYYTMDYWGQGTSVTVSS
VL: DIQMTQSTSSLSASLGDRVTITCRASQDITNYLNWYQQKPDGTVKLLIYYTSRLHSGVPSRFSGSGSGTDFSLTISNLEQEDIATYFCQQGNTLPWTFGGGTKLEII
In the case of B6, the ELISA with HuCDCP1-C (human) was determined as 19.6 nM.

B7: SB11 (antibody, V domains shown)
VH: EVQLQQSGAELVKPGASVKLSCTASGFNIQDTYILWVKQRPEQGLEWIGGIDPANDNTNYGPNFQGKATITADTSSNTAYLQLSSLTSEDSAVYYCAREDAYPWFAYWGQGTLVTVSS
VL: DIVLTQSPASLAVSLGQRATISCRASQSVSTSSYSYMHWYQLKPGQPPKLLIKYASNLESGVPARFSGSGSGTDFTLNIHPVEEEDAAIYYCQHNWEIPWTFGGGTRLEIK
As for B7, the ELISA with HuCDCP1-B (human) was determined as 0.035 nM; in the assay with HuCDCP1-C (human), 0.038 nM.

Values taken from EP4524159A1, “ANTIBODY AND USE THEREOF” (Sichuan Huiyu Pharmaceutical Co., Ltd., priority 2022, dated 2023).
